Source: patent US8722683B2, “Benzodioxole piperazine compounds” (Hoffmann LA-Roche Inc., priority 2011, dated 2014)

Protein sequences, listed by entry. Tags and fused reporters are not part of them.
UniProt P35462, whole entry: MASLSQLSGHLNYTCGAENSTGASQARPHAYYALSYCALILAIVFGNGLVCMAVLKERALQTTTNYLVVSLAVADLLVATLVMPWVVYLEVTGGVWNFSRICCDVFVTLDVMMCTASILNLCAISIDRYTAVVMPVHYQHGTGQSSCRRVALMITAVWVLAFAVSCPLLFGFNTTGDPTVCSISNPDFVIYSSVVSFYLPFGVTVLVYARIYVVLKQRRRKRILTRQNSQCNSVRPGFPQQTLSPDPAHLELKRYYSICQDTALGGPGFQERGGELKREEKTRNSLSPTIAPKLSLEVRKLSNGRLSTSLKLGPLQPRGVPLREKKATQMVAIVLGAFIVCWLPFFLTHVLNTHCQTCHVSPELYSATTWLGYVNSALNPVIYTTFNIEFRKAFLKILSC
UniProt P14416, whole entry: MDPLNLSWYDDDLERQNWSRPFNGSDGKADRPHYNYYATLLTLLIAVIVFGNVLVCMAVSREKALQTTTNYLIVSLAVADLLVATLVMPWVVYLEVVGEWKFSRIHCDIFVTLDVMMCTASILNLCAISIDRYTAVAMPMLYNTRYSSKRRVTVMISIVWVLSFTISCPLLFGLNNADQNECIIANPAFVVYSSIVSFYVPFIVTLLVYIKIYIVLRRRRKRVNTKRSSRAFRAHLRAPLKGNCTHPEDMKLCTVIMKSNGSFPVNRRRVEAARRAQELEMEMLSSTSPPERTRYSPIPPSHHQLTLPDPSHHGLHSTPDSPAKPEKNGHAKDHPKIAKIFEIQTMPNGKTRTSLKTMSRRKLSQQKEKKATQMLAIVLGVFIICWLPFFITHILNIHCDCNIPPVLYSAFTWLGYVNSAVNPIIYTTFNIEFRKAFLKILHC

Assays:
D3 receptor = D3 receptor (Homo sapiens (Human), UniProt P35462); experiment: Radioligand binding ([3H]-spiperone) to cloned D3 receptor expressed in HEK-293 EBNA cells; conditions: HEK293 EBNA membranes, 0.5 nM [3H]-spiperone
Protocol: (§1) HEK293 EBNA cells were transiently transfected with expression plasmids encoding for the human D2 or D3 or for the human 5-HT2A receptor, respectively. The cells were harvested 48 h post-transfection, washed three times with cold PBS and stored at −80° C. prior to use. The pellet was suspended in cold 50 mM Tris-HCl buffer containing 10 mM EDTA (pH 7.4) and was homogenized with a Polytron (Kinematica AG, Basel, Switzerland) for 20-30 sec at 12.000 rpm. After centrifugation at 48.000×g for 30 min at 4° C., the pellet was resuspended in cold 10 mM Tris-HCl buffer containing 0.1 mM EDTA (pH 7.4), homogenized, and centrifuged as above. This pellet was further resuspended in a smaller volume of ice cold 10 mM Tris-HCl buffer containing 0.1 mM EDTA (pH 7.4) and homogenized with a Polytron for 20-30 sec at 12.000 rpm. The protein content of this homogenate was determined with the Bio-Rad (Bradford) Protein Assay (Biorad Laboratories GmbH, München, Germany) according to the instructions of the manufacturer using gamma globulin as the standard. This homogenate was stored at −80° C. in aliquots and thawed immediately prior to use.
Radioligand Binding Assay
Aliquots of membrane preparations were thawed at RT, resupended in assay buffer (D2, D3: 50 mM Tris-HCl, 120 mM NaCl, 5 mM MgCl2, 1 mM EDTA, 5 mM KCl, 1.5 mM CaCl2, pH=7.4; 5-HT2A: 50 mM Tris-HCl, 10 mM MgCl2, 1 mM EGTA, pH=7.4), homogenized with a Polytron for 20-30 sec at 12.000 rpm and adjusted to a final concentration of approximately 7.5 μg protein/well (D2, D3) and 15 μg protein/well (5-HT2A), respectively.
(§2) The binding affinity (Ki) of the compounds was determined using radioligand binding. […] The nonspecific binding was determined with equally composed reaction mixtures in the presence of 10 μM unlabelled spiperone. Per well 45 μl of Microscint 40 (Perkin Elmer, Schwerzenbach, Switzerland) was added, plates for sealed, shaken for 20 min and counted for 3 min on a Topcount Microplate Scintillation Counter (Canberra Packard SA, Zürich, Switzerland) with quenching correction.
The CPM value for each duplicate of a concentration of competing compound was averaged (y1), then the % specific binding was calculated according to the equation (((y1−non-specific)/(total binding−non-specific))×100). […] The affinity constant (Ki) was calculated using the Cheng-Prusoff equation Ki=(IC50/1+([L]/Kd), where [L] is the concentration of radioligand and Kd is the dissociation constant of the radioligand at the receptor as determined by the saturation isotherm.

D2 receptor = D2 receptor (Homo sapiens (Human), UniProt P14416); experiment: Radioligand binding ([3H]-spiperone) to cloned D2 receptor expressed in HEK-293 EBNA cells; conditions: HEK293 EBNA membranes, 0.7 nM [3H]-spiperone
Protocol: as §1, with “This pellet was further resuspended in a smaller volume of ice cold 10 mM Tris-HCl buffer containing 0.1 mM EDTA (pH 7.4) and homogenized with a Polytron for 20-30 sec at 12.000 rpm.” left out, “This homogenate was stored at −80° C. in aliquots and thawed immediately prior to use.” left out
as §2, with “correction. […]” for “correction.”

| Structure (SMILES) | Ki (D3 receptor) [nM] | Ki (D2 receptor) [nM] |
| --- | --- | --- |
| O=C(CC1COCCO1)N[C@H]1CC[C@H](CCN2CCN(c3cccc4c3OCO4)CC2)CC1 (stereo partly drawn) [Example 3, Trans-N-{4-[2-(4-Benzo[1,3]dioxol-4-yl-piperazin-1-yl)-ethyl]-cyclohexyl}-2-[1,4]dioxan-2-yl-acetamide] | 2.56 | – |
| O=S(=O)(N[C@H]1CC[C@H](CCN2CCN(c3cccc4c3OCO4)CC2)CC1)c1ccccc1 [Example 67, N-trans-{4-[2-(4-Benzo[1,3]dioxol-4-yl-piperazin-1-yl)-ethyl]-cyclohexyl}-benzenesulfonamide] | – | 72.4 |
| Cn1cnc(S(=O)(=O)N[C@H]2CC[C@H](CCN3CCN(c4cccc5c4OCO5)CC3)CC2)c1 [Example 69, 1-Methyl-1H-imidazole-4-sulfonic acid-trans-N-{4-[2-(4-benzo[1,3]dioxol-4-yl-piperazin-1-yl)-ethyl]-cyclohexyl}-amide] | – | 55.3 |
| [2H]C1([2H])Oc2cccc(N3CCN(CC[C@H]4CC[C@H](NC(=O)C[C@H]5COCCO5)CC4)CC3)c2O1 [Example 78, N-trans-{4-[2-(4-Benzo(2,2-D2)-[1,3]dioxol-4-yl-piperazin-1-yl)-ethyl]-cyclohexyl}-2-(S)-[1,4]dioxan-2-yl-acetamide] | 2.46 | – |

Continued, values first:

| Ki (D3 receptor) [nM] | Ki (D2 receptor) [nM] | Structure (SMILES) |
| --- | --- | --- |
| 2.99 | – | O=C(C[C@@H]1CCCOC1)N[C@H]1CC[C@H](CCN2CCN(c3cccc4c3OCO4)CC2)CC1 (single isomer, unassigned) [Example 32, Trans-N-{4-[2-(4-Benzo[1,3]dioxol-4-yl-piperazin-1-yl)-ethyl]-cyclohexyl}-2-(S) or (R)-tetrahydro-pyran-3-yl-acetamide] |
| 3.92 | – | O=C(C[C@H]1CCCOC1)N[C@H]1CC[C@H](CCN2CCN(c3cccc4c3OCO4)CC2)CC1 (single isomer, unassigned) [Example 33, Trans-N-{4-[2-(4-Benzo[1,3]dioxol-4-yl-piperazin-1-yl)-ethyl]-cyclohexyl}-2-(R) or (S)-tetrahydro-pyran-3-yl-acetamide] |
